ChEMBL document CHEMBL4400508, “Targeted Endocrine Therapy: Design, Synthesis, and Proof-of-Principle of 17β-Hydroxysteroid Dehydrogenase Type 2 Inhibitors in Bone Fracture Healing” (J Med Chem, 2019)

Legend:
[1] = target: T1, 17-beta-hydroxysteroid dehydrogenase type 1 (Homo sapiens, UniProt P14061)
T1 sequence (P14061 whole entry): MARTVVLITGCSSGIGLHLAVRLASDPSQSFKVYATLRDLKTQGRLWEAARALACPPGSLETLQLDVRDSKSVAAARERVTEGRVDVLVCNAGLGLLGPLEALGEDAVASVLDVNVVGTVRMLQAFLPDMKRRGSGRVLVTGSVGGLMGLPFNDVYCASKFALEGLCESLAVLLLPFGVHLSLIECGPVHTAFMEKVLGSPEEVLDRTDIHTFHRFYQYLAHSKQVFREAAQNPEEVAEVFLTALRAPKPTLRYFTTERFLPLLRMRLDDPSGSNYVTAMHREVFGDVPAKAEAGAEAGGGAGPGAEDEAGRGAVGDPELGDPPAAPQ

[2] = target: T2, Estradiol 17-beta-dehydrogenase 2 (Mus musculus, UniProt P51658); assay: biochemical; type: tissue-based, Liver
T2 sequence (P51658 whole entry): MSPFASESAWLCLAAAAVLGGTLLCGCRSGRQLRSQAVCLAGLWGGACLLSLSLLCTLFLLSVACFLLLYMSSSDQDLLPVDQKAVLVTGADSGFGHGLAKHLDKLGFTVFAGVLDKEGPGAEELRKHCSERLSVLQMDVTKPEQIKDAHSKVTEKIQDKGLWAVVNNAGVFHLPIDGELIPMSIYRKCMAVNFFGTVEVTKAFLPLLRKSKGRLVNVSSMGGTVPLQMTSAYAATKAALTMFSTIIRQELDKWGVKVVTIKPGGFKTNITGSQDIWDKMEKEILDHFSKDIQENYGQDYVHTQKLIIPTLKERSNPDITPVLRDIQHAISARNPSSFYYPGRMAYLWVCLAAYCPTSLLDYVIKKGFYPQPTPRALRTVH

`O=C(c1ccc(-c2cccc(NS(=O)(=O)c3ccc(F)cc3)c2)s1)c1cc(F)c(F)c(O)c1F` showed an IC50 [1] of 1.2 nM.
`O=C(c1ccc(-c2cccc(NS(=O)(=O)c3ccccc3)c2)s1)c1cccc(O)c1F` was tested, and the IC50 [1] was 7.2 nM.
In the case of `O=C(c1ccc(-c2cccc(NS(=O)(=O)c3ccccc3)c2)s1)c1c(Cl)ccc(O)c1F`, the IC50 [2] is reported as 8.9 nM.
